Test results taken from PMC10901556, “Conservation of Affinity Rather Than Sequence Underlies a Dynamic Evolution of the Motif-Mediated p53/MDM2 Interaction in Ray-Finned Fishes” (Molecular Biology and Evolution, 2024).

Biological target: MDM2_(H.sapiens) SWIB domain (Homo sapiens (human))
Experiment: fluorescence polarisation; displacement: complex of MDM2 (0.2-2 μM) and FITC-p53TAD_(human)^15–26 (15 nM) displaced by increasing unlabeled p53TAD peptide or p53TAD^full-length; KD calculated from IC50 (Nikolovska-Coleska et al. 2004); 20 mM sodium phosphate pH 7.4, 150 mM NaCl, 1 mM TCEP

How did the Kd turn out when DSPDFEDLWNSIV (N-terminal acetylated) [Clupea harengus p53TADP2 p53TAD^15–27] was run?
Its Kd is 290 nM.
